The text below walks through data of article PMC3615473 (Nature Communications, 2013).

For test [1], the target named is GFP-Top2α-st1 (C-terminal-truncated, 42 amino-acid deletion) stably expressed in HTETOP cells (human, UniProt P11388). Put plainly: co-IP.
The target of test [2] is DNA topoisomerase IIα (Top2α), endogenous (human (endogenous in HeLa; Pol Iβ …, UniProt P11388). Put plainly: far-Western, overlay or dot blot.
For test [3], the target named is ^35S-GFP-Top2α WT (in vitro-translated) (human, UniProt P11388, 35S-labelled). Put plainly: pull-down.
For test [4], the target named is ^35S-GFP-Top2α-st5 (C-terminal-truncated, 180 amino-acid deletion; in vitro-translated) (human, UniProt P11388, 35S-labelled). Kind of test: pull-down.

B1: RRN3, endogenous (Pol Iβ-specific component) (natural protein, UniProt Q9NYV6 1-651, looked up)
chain: MAAPLLHTRLPGDAAASSSAVKKLGASRTGISNMRALENDFFNSPPRKTVRFGGTVTEVLLKYKKGETNDFELLKNQLLDPDIKDDQIINWLLEFRSSIMYLTKDFEQLISIILRLPWLNRSQTVVEEYLAFLGNLVSAQTVFLRPCLSMIASHFVPPRVIIKEGDVDVSDSDDEDDNLPANFDTCHRALQIIARYVPSTPWFLMPILVEKFPFVRKSERTLECYVHNLLRISVYFPTLRHEILELIIEKLLKLDVNASRQGIEDAEETATQTCGGTDSTEGLFNMDEDEETEHETKAGPERLDQMVHPVAERLDILMSLVLSYMKDVCYVDGKVDNGKTKDLYRDLINIFDKLLLPTHASCHVQFFMFYLCSFKLGFAEAFLEHLWKKLQDPSNPAIIRQAAGNYIGSFLARAKFIPLITVKSCLDLLVNWLHIYLNNQDSGTKAFCDVALHGPFYSACQAVFYTFVFRHKQLLSGNLKEGLQYLQSLNFERIVMSQLNPLKICLPSVVNFFAAITNKYQLVFCYTIIERNNRQMLPVIRSTAGGDSVQICTNPLDTFFPFDPCVLKRSKKFIDPIYQVWEDMSAEELQEFKKPMKKDIVEDEDDDFLKGEVPQNDTVIGITPSSFDTHFRSPSSSVGSPPVLYMQPSPL
As to B1, in test [1], the “fold decrease of co-immunoprecipitated amount against GFP-Top2α-WT” value is ~6 fold.

B2: ^35S-Flag-RRN3 (in vitro-translated, Flag-immunopurified human RRN3) (natural protein, UniProt Q9NYV6 1-651, looked up)
chain: B1 chain
modifications: 35S-methionine-labelled
With B2, the binding result in test [2], in test [3] and in test [4] was “binds” in each case.
